Laboratory results published in patent US6368619B1, “Hydrophobic preparations of hydrophilic species and process for their preparation” (Provalis UK Limited, priority 1993, dated 2002).

Tests used:
[1] = Dispersion of hydrophilic species/amphiphile array in hydrophobic solvent: visual optical clarity; format: physicochemical; settings: Example 15: 1 mg, 0.2 g egg PC SUVs, oleic acid, within 2 hours
[2] = Percent sedimentation after 24 hours of macromolecules dispersed in oleic acid with and without PC; format: physicochemical; settings: 300 μl oleic acid, error ±5%
Experimental: 10 mg of cytochrome C, haemoglobin and FITC-dextran were each dissolved in 1 ml of distilled water. 4.4 mg of RNA (extracted from Torula yeast) was dissolved in 1 ml of phosphate-buffered saline. 2×50 μl of each of these solution was dispensed into fresh glass tubes, and to one of each of these sets of solutions was added 250 μl of SUVs prepared as in example 1 at a concentration of 40 mg/ml of egg yolk lecithin (PC).
Both sets of tubes were shell-frozen and lyophilised overnight as above. The following day 300 μl of oleic acid was added to each of the tubes. The samples were left to stand at room temperature with occasional vortexing for one hour until complete dispersion had been achieved. The oils were allowed to stand overnight. The turbidity of the samples prepared without PC was greater than those containing PC.
The following day, sediments had settled out in the samples prepared without PC. Without disturbing any of the samples, the top 150 μl of each sample was taken off, and the absorbances measured of both the material removed, and the material left behind, after mixing; comparison of the two readings allowed one to calculate the percentage sedimentation for samples with and without PC (error in measurements ±5%) Values obtained are listed below.

Substance | appearance of dispersion [1] | Percent sedimentation after 24 hours, +PC ([2]; Example 17: with egg yolk PC SUVs) [%] | Percent sedimentation after 24 hours, −PC ([2]; Example 17: without PC) [%]
Nisin [reference compound] | crystal clear dispersion | – | –
FITC dextran [reference compound] | – | 0 | 68
